How the values were obtained:
[1] = Metabolic stability of compound in rat hepatocytes relative to hepatic blood flow; assay type: ADME, cell-based, Hepatocyte; conditions: read-out: Stability
Rattus norvegicus = species: Rattus norvegicus; test: Clearance in rat relative to hepatic blood flow; assay type: ADME, organism-based, Liver; conditions: in vivo
[2] = Metabolic stability of compound in human hepatocytes relative to hepatic blood flow; assay type: ADME, cell-based, Hepatocyte; conditions: read-out: Stability

- hepatic extraction ratio [1]: 0.095
- CL (Rattus norvegicus): 24%
- hepatic extraction ratio [2]: 0.17
Structure (SMILES): CC(O)(c1cccc(C(F)(F)F)c1)c1nc(-n2ccc(NC(=O)c3cscn3)cc2=O)c[nH]1 (stereo not drawn)

Reference: ChEMBL document CHEMBL3808290, “Discovery of Potent, Orally Bioavailable Inhibitors of Human Cytomegalovirus” (ACS Med Chem Lett, 2016)
